Measurements taken from paper PMC9751974 (Frontiers in Microbiology, 2022).

Test system: E. coli ATCC25922
Details: LB broth, 1 × 10^5 CFU/mL, 37°C, 16–24 h, triplicate
Experimental: The MIC values of peptides against E. coli ATCC25922 were determined by the microtiter broth dilution method. The bacteria were grown to the mid-logarithmic phase and diluted into the Luria-Bertani (LB) broth at 1 × 10^5 CFU/mL. […] Polymyxin and the sterile aqua distillate were tested as control. All assays were performed in triplicate.

For `CC[C@H](C)[C@H](NC(=O)[C@H](CCCNC(=N)N)NC(=O)[C@@H](NC(=O)[C@H](C)NC(=O)[C@@H](NC(=O)[C@@H](NC(=O)[C@H](CC(C)C)NC(=O)[C@H](CCCNC(=N)N)NC(=O)[C@@H](N)C(C)C)[C@@H](C)CC)C(C)C)C(C)C)C(=O)N[C@@H](Cc1c[nH]c2ccccc12)C(=O)N[C@@H](CCCNC(=N)N)C(=O)N[C@@H](CCCNC(=N)N)C(N)=O` [IDR-1018], the MIC was 8 µg/mL (≈ 5.21 µM).

Values after ≈ are worked out from the molar mass of the structure shown.
